The source of these data is PubChem BioAssay AID588819 (The Scripps Research Institute Molecular Screening Center, 2011).

By UniProt entry, the sequences of proteins in these tests, tags left out. Where a name states a change or a piece, a line headed by the entry shows the natural chain unless it says otherwise.
UniProt P11229: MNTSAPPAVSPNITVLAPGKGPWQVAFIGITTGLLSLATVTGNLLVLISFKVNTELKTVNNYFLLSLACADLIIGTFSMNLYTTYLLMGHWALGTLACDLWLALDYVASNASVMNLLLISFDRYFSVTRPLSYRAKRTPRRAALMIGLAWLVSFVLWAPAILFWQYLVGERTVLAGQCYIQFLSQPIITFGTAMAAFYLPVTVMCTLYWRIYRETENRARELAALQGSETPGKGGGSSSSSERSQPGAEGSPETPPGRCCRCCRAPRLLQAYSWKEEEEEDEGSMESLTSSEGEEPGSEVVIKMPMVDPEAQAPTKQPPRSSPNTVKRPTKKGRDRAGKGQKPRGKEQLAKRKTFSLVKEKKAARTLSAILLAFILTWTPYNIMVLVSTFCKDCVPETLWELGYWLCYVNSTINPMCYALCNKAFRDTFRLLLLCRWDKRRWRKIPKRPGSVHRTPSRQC

Where “and” joins values, the source holds several entries; their conditions need not be identical. Identical values can stand only once. This is a selection; strong and weak results do not stand in their true shares. Calls of active or inactive are those of the source. No stated cut-off is given here; in the data, active means activation above about 19% (passing the limit was not always enough); inactive means the rest.

For this experiment, the target named is Muscarinic acetylcholine receptor M1 (Homo sapiens) (UniProt P11229). The experiment can be described thus: CHRM1 PAMs potentiating acetylcholine calcium signal – CHO-K1 cells, Fluo-8 calcium fluorescence, 1536-well, primary screen (AID 588819). To be noted: CHO-K1 hM1, Fluo-8 calcium fluorescence, ACh EC20; at 3 µM; stronger effect = higher value; 0% = ACh EC20, 100% = maximal ACh.
On to `CCN(C(=O)COC(=O)C(O)(c1ccccc1)c1ccccc1)c1c(N)n(Cc2ccccc2)c(=O)[nH]c1=O`, for which the activation was inactive: 14.3%. As to `CC(NC(=O)COC(=O)C(O)(c1ccccc1)c1ccccc1)c1ccccc1` (stereo unspecified), the activation is inactive: -6.11%. As for `Cc1ccccc1OP(=O)(Nc1ccccn1)Oc1ccccc1C`, the activation is inactive: 0.14%. Next, `O=c1c2cc([N+](=O)[O-])ccc2[nH]c2c([N+](=O)[O-])cc([N+](=O)[O-])cc12`: inactive: -5.74%; `CN(C)C(=O)Oc1noc2ccccc12`: inactive: 1.56%; `COC(=O)c1cc2c(s1)N=C(c1ccccc1)N(C)P2(=O)N1CCOCC1` (stereo unspecified): inactive: 10.1%. Next, `Cc1ccc(OP(=O)(Nc2ccccn2)Oc2ccc(C)cc2)cc1`: inactive: -5.91%; `CC(=O)NC(SC(=S)N(CC(C)C)CC(C)C)C(Cl)(Cl)Cl` (stereo unspecified): inactive: 9.89%; `O=C(OC1CN2CCC1CC2)c1ccccc1` (stereo unspecified): inactive: -29.1%. In the case of `CCC(=O)N1C2C3N(C(=O)CC)C1C1N(C(=O)CC)C(C(N1C(=O)CC)N3C(=O)CC)N2C(=O)CC`, the activation was inactive: 8.2%. The value for `Clc1ccc(N2CCN(Cc3c[nH]c4ncccc34)CC2)cc1` was inactive: -7.7%; that for `O=P1(N(CCCl)CCCl)OCCC2CCCCN21` (stereo unspecified) was inactive: 16%. The value for `CC1C(=O)OC2CCN3CC4OC4(COC(=O)C(C)(O)C1(C)O)C23` (stereo unspecified) was inactive: 9.99%. The value for `CCNC(=S)/N=C(\N)N[N+](=O)[O-]` was inactive: 3.5%; that for `O=C(NC1CCS(=O)(=O)C1)NP(=S)(Oc1ccccc1)Oc1ccccc1` (stereo unspecified) was inactive: -9.22%. Turning to `c1ccc(-c2nn[nH]n2)c(-c2nn[nH]n2)c1`, the activation is inactive: 7.59%.

Regarding `C=C1C(=O)OC2CCN3CC=C(COC(=O)C(C)(O)C4(CO4)C1C)C23` (stereo unspecified), the activation was inactive: 1.81%.

Turning to `Cc1ccc(NP(=O)(Oc2cccc(C)c2)Oc2cccc(C)c2)nc1`, the activation was inactive: 9.78%. The value for `CC(=O)Nc1ccc([As](=O)(O)O)c(O)c1` was inactive: 10.9%; that for `CC(=O)Nc1ccc(Oc2c([N+](=O)[O-])cc([N+](=O)[O-])cc2[N+](=O)[O-])cc1` was inactive: 7.01%; that for `CC(=O)c1ccc(N2CC2c2ccncc2)cc1` (stereo unspecified) was inactive: 6.44%. The value for `N#C/C(=C\c1ccc(N(CCBr)CCBr)cc1)C(N)=O` was inactive: 3.38%; that for `COC(=O)C1(C)COP(=O)(NCc2ccccc2)OC1` (stereo unspecified) was inactive: 3.01%. Next, `CC1C(=O)OC2CCN3CC=C(COC(=O)C(C)(O)C1(C)O)C23` (stereo unspecified): inactive: -0.14%. `Cc1ccccc1CN(C)C(=O)COC(=O)C(O)(c1ccccc1)c1ccccc1`: the activation was inactive: 10.3%.

As for `CCN(CC)CCOC(=O)C(O)(c1ccccc1)c1ccccc1`, the activation was inactive: -25.1%. The value for `C[C@H]1OP(=O)(Oc2ccccc2)C[C@@H]2O[C@@H]21` (stereo partly specified) was inactive: 11%; that for `C[C@@H]1C=CCP(=O)(Oc2ccccc2)O1` (stereo partly specified) was inactive: 7.23%. Next, `CCc1cc(O)c([N+](=O)[O-])c(C)c1[N+](=O)[O-]`: inactive: 3.43%. Next, `CC(C)(C)C(=O)NC(Sc1ccccc1)C(Cl)(Cl)Cl` (stereo unspecified): inactive: -5.72%; `O=P1(Nc2nc3ccc(Cl)cc3s2)COc2ccccc2O1` (stereo unspecified): inactive: 5.17%. As to `CCOc1ccc(C2=NCC(CBr)S2)cc1` (stereo unspecified), the activation was inactive: 1.1%. With `COc1cc(C2NCCC3(OCCO3)C2(C)C)cc(OC)c1OC` (stereo unspecified), the activation is inactive: 1.57%. The value for `CCOP(=O)(Nc1cccc2ccccc12)OCC` was inactive: 14.8%; that for `C[C@H]1C(=O)O[C@@H]2CCN3CC=C(COC(=O)[C@](C)(O)[C@]1(C)O)[C@H]23` was inactive: 1.29%. The value for `CCCOP(=S)(Nc1nc(N)cc(=O)[nH]1)OCCC` was inactive: 0.33%.

Take `Nc1cccc2c([As](=O)(O)O)cccc12`: the activation was inactive: -3.21%.

With `Cc1ccc(NCCc2c([N+](=O)[O-])cc([N+](=O)[O-])cc2[N+](=O)[O-])cc1`, the activation was inactive: 1.01%. On to `COc1ccc(C[C@H]2NC[C@H](O)[C@H]2OC(C)=O)cc1`, for which the activation was inactive: 3.11%.

Consider `Cc1cccc(OCC(=O)OC2CN3CCC2CC3)c1` (stereo unspecified), for which the activation is inactive: -18.4%.

With `O=[As](O)(c1cccc(O)c1)c1cccc(O)c1`, the activation is inactive: 13.5%. The value for `O=[As](O)(O)c1cccnc1` was inactive: 7.44%.

`CS(=O)(=O)c1ccc(Cl)c(NC(=O)COC(=O)C(O)(c2ccccc2)c2ccccc2)c1`: the activation is inactive: -2.04%. Next, `O=C(OC1CN2CCC1CC2)c1ccc(Cl)cc1` (stereo unspecified): inactive: -25.9%; `O=[N+]([O-])c1ccc2c(c1)nnn2O`: inactive: 2.35%; `CN(C)C(=O)c1cc([N+](=O)[O-])cc2c1-c1c(cc([N+](=O)[O-])cc1[N+](=O)[O-])C2=O`: inactive: 2.32%. The value for `CN(C(=O)Cc1ccc(Cl)c(Cl)c1)[C@H]1CC[C@@]2(CCCO2)C[C@@H]1N1CCCC1` was inactive: -6.05%; that for `N#CCCN(C(=O)COC(=O)C(O)(c1ccccc1)c1ccccc1)c1ccc(F)cc1` was inactive: 2.51%; that for `CCOP1(=S)c2c(C)nn(CCC#N)c2N=C(c2ccc(F)cc2)N1C` (stereo unspecified) was inactive: 8.58%. Next, `CN(C(=O)Cc1ccccc1)[C@@H]1CC[C@]2(CCCO2)C[C@H]1N1CCCC1`: inactive: -0.25%; `COc1ccc(CC(C)NCC(O)c2ccc(O)c(NC=O)c2)cc1` (stereo unspecified): inactive: -0.9% and inactive: 4.5%. For `NC(=O)Nc1ccc([As](=O)(O)O)cc1`, the activation is inactive: -0.97%. Next, `Nc1ccccc1[As](=O)(O)c1ccccc1`: inactive: -0.23%; `O=C(O)COc1ccc([As](=O)(O)O)cc1[N+](=O)[O-]`: inactive: 10.2%; `CS(=O)(=O)c1cc([N+](=O)[O-])c2no[n+]([O-])c2c1`: inactive: 6.82%.

As for `CCOP1(=S)c2c(C)nn(CCC#N)c2N=C(c2ccccc2F)N1C` (stereo unspecified), the activation is inactive: 2.53%. Regarding `O=P(Nc1nccs1)(Oc1ccccc1)Oc1ccccc1`, the activation was inactive: -1.05%.

Take `O=P(Nc1nccs1)(c1ccccc1)c1nc2ccccc2s1` (stereo unspecified): the activation is inactive: -1.77%.

As for `O=[As](O)(c1cccs1)c1cccs1`, the activation is inactive: 12.8%.

Turning to `Cc1ccc(OCC(=O)OC2CN3CCC2CC3)cc1` (stereo unspecified), the activation was inactive: -16.5%.

As for `O=P1(Nc2ccc(Br)cn2)COc2ccccc2OC1`, the activation was inactive: 2.81%.
